The source of these data is US8299031B2, “Human semen enhancer of viral infection peptides (SEVI) and their use” (Viro Pharmaceuticals GmbH & Co. KG, priority 2006, dated 2012).

A short description of the data set: Fibril formation of PAP(248-286) solutions (turbidity, electron microscopy). In kind it is physicochemical. To be noted: 5 mg/ml in phosphate buffered saline, shaking 1000 rpm, overnight 37 degrees Celsius.

On to “GIHKQKEKSRLQGGVLVNEILNHMKRATQIPSYKKLIMY (Synthetic fragment of the PAP protein) [PAP(248-286)]”, for which the “appearance of peptide solution after agitation” value is “became turbid and fibril-like structures were visible”.
